PubChem BioAssay (NCI)
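Five concentrations, 48 hours, 96-well plates. Abbreviation: GI50, concentration required for 50% inhibition of growth. Definition used: TGI = concentration required for complete inhibition of growth.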

Experiments:
Assay in all cases: NCI-60 cell line screen, 48 h
MDA-MB-435 = tested on: MDA-MB-435
SF-268 CNS = tested on: SF-268 CNS
SN12C renal = tested on: SN12C renal
OVCAR-3 ovarian = tested on: OVCAR-3 ovarian
TK-10 renal = tested on: TK-10 renal
SK-MEL-2 melanoma = tested on: SK-MEL-2 melanoma
HCC-2998 colon = tested on: HCC-2998 colon
T-47D breast = tested on: T-47D breast
MDA-MB-231 breast = tested on: MDA-MB-231 breast
U251 CNS = tested on: U251 CNS
NCI-H522 lung = tested on: NCI-H522 lung
BT-549 breast = tested on: BT-549 breast
786-0 renal = tested on: 786-0 renal
ACHN renal = tested on: ACHN renal
COLO 205 colon = tested on: COLO 205 colon
PC-3 prostate = tested on: PC-3 prostate
HCT-15 colon = tested on: HCT-15 colon
HCT-116 colon = tested on: HCT-116 colon
UACC-257 melanoma = tested on: UACC-257 melanoma
DU-145 prostate = tested on: DU-145 prostate
RXF 393 renal = tested on: RXF 393 renal
CCRF-CEM leukemia = tested on: CCRF-CEM leukemia
A549 NSCLC = tested on: A549 NSCLC
SF-539 CNS = tested on: SF-539 CNS
NCI-H226 lung = tested on: NCI-H226 lung
SNB-75 CNS = tested on: SNB-75 CNS
OVCAR-8 ovarian = tested on: OVCAR-8 ovarian
UACC-62 melanoma = tested on: UACC-62 melanoma
MCF7 breast = tested on: MCF7 breast
HL-60(TB) leukemia = tested on: HL-60(TB) leukemia
KM12 colon = tested on: KM12 colon
SNB-19 CNS = tested on: SNB-19 CNS
M14 melanoma = tested on: M14 melanoma
IGROV1 ovarian = tested on: IGROV1 ovarian
MDA-N = tested on: MDA-N
SK-MEL-28 melanoma = tested on: SK-MEL-28 melanoma
SW-620 colon = tested on: SW-620 colon
SR leukemia = tested on: SR leukemia
OVCAR-4 ovarian = tested on: OVCAR-4 ovarian
OVCAR-5 ovarian = tested on: OVCAR-5 ovarian
SK-MEL-5 melanoma = tested on: SK-MEL-5 melanoma
HS 578T breast = tested on: HS 578T breast
MOLT-4 leukemia = tested on: MOLT-4 leukemia
RPMI-8226 leukemia = tested on: RPMI-8226 leukemia
SF-295 CNS = tested on: SF-295 CNS
MALME-3M melanoma = tested on: MALME-3M melanoma
EKVX NSCLC = tested on: EKVX NSCLC
UO-31 renal = tested on: UO-31 renal
SK-OV-3 ovarian = tested on: SK-OV-3 ovarian
HOP-62 NSCLC = tested on: HOP-62 NSCLC
CAKI-1 renal = tested on: CAKI-1 renal
LOX IMVI melanoma = tested on: LOX IMVI melanoma
A498 renal = tested on: A498 renal
K-562 leukemia = tested on: K-562 leukemia
NCI/ADR-RES ovarian = tested on: NCI/ADR-RES ovarian
NCI-H460 lung = tested on: NCI-H460 lung
NCI-H322M lung = tested on: NCI-H322M lung
NCI-H23 lung = tested on: NCI-H23 lung
HT29 colon = tested on: HT29 colon
HOP-92 NSCLC = tested on: HOP-92 NSCLC

## NC(=O)Nc1ccc([As](=O)(O)O)cc1
MDA-MB-435
  GI50: > 100 µM
  TGI: > 100 µM
SF-268 CNS
  GI50: > 100 µM
  TGI: > 100 µM
SN12C renal
  GI50: > 100 µM
  TGI: > 100 µM
OVCAR-3 ovarian
  GI50: > 100 µM
  TGI: > 100 µM
TK-10 renal
  GI50: > 100 µM
  TGI: > 100 µM
SK-MEL-2 melanoma
  GI50: > 100 µM
  TGI: > 100 µM
HCC-2998 colon
  GI50: > 100 µM
  TGI: > 100 µM
T-47D breast
  GI50: > 100 µM
  TGI: > 100 µM
MDA-MB-231 breast
  GI50: > 100 µM
  TGI: > 100 µM
U251 CNS
  GI50: > 100 µM
  TGI: > 100 µM
NCI-H522 lung
  GI50: > 100 µM
  TGI: > 100 µM
BT-549 breast
  GI50: > 100 µM
  TGI: > 100 µM
786-0 renal
  GI50: > 100 µM
  TGI: > 100 µM
ACHN renal
  GI50: > 100 µM
  TGI: > 100 µM
COLO 205 colon
  GI50: > 100 µM
  TGI: > 100 µM
PC-3 prostate
  GI50: > 100 µM
  TGI: > 100 µM
HCT-15 colon
  GI50: > 100 µM
  TGI: > 100 µM
HCT-116 colon
  GI50: > 100 µM
  TGI: > 100 µM
UACC-257 melanoma
  GI50: > 100 µM
  TGI: > 100 µM
DU-145 prostate
  GI50: > 100 µM
  TGI: > 100 µM
RXF 393 renal
  GI50: > 100 µM
  TGI: > 100 µM
CCRF-CEM leukemia
  GI50: > 100 µM
  TGI: > 100 µM
A549 NSCLC
  GI50: > 100 µM
  TGI: > 100 µM
SF-539 CNS
  GI50: > 100 µM
  TGI: > 100 µM
NCI-H226 lung
  GI50: > 100 µM
  TGI: > 100 µM
SNB-75 CNS
  GI50: > 100 µM
  TGI: > 100 µM
OVCAR-8 ovarian
  GI50: > 100 µM
  TGI: > 100 µM
UACC-62 melanoma
  GI50: > 100 µM
  TGI: > 100 µM
MCF7 breast
  GI50: > 100 µM
  TGI: > 100 µM
HL-60(TB) leukemia
  GI50: > 100 µM
  TGI: > 100 µM
KM12 colon
  GI50: > 100 µM
  TGI: > 100 µM
SNB-19 CNS
  GI50: > 100 µM
  TGI: > 100 µM
M14 melanoma
  GI50: > 100 µM
  TGI: > 100 µM
IGROV1 ovarian
  GI50: > 100 µM
  TGI: > 100 µM
MDA-N
  GI50: > 100 µM
  TGI: > 100 µM
SK-MEL-28 melanoma
  GI50: > 100 µM
  TGI: > 100 µM
SW-620 colon
  GI50: > 100 µM
  TGI: > 100 µM
SR leukemia
  GI50: > 100 µM
  TGI: > 100 µM
OVCAR-4 ovarian
  GI50: > 100 µM
  TGI: > 100 µM
OVCAR-5 ovarian
  GI50: > 100 µM
  TGI: > 100 µM
SK-MEL-5 melanoma
  GI50: > 100 µM
  TGI: > 100 µM
HS 578T breast
  GI50: > 100 µM
  TGI: > 100 µM
MOLT-4 leukemia
  GI50: > 100 µM
  TGI: > 100 µM
RPMI-8226 leukemia
  GI50: > 100 µM
  TGI: > 100 µM
SF-295 CNS
  GI50: > 100 µM
  TGI: > 100 µM
MALME-3M melanoma
  GI50: > 100 µM
  TGI: > 100 µM
EKVX NSCLC
  GI50: > 100 µM
  TGI: > 100 µM
UO-31 renal
  GI50: > 100 µM
  TGI: > 100 µM
SK-OV-3 ovarian
  GI50: > 100 µM
  TGI: > 100 µM
HOP-62 NSCLC
  GI50: > 100 µM
  TGI: > 100 µM
CAKI-1 renal
  GI50: > 100 µM
  TGI: > 100 µM
LOX IMVI melanoma
  GI50: > 100 µM
  TGI: > 100 µM
A498 renal
  GI50: > 100 µM
  TGI: > 100 µM
K-562 leukemia
  GI50: > 100 µM
  TGI: > 100 µM
NCI/ADR-RES ovarian
  GI50: > 100 µM
  TGI: > 100 µM
NCI-H460 lung
  GI50: > 100 µM
  TGI: > 100 µM
NCI-H322M lung
  GI50: > 100 µM
  TGI: > 100 µM
NCI-H23 lung
  GI50: > 100 µM
  TGI: > 100 µM
HT29 colon
  GI50: > 100 µM
  TGI: > 100 µM
HOP-92 NSCLC
  GI50: > 100 µM
  TGI: > 100 µM
